Results from PubChem BioAssay AID2716 (Broad Institute, 2010).
The list shows a part of the results, in another mix than the full data. Calls of active or inactive are those of the source.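 How the source made its calls: active means every valid replicate shows activation above 250% relative to neutral control wells; inactive means the rest, any valid replicate at or below 250%.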

Assay: yeast Mot1-301 growth rescue at high temperature, primary screen, SUMOylation pathway inhibitor project, S. cerevisiae, ATP luminescence, 38.5C (AID 2716);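 further: OY570 slx delta 5 strain wells were the positive control but not used for scaling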
Conditions: S. cerevisiae Mot1-301 growth rescue, at 18.8 µM, hits give high values, percent above DMSO median, 100 means doubled
For `O=[N+]([O-])c1cc([N+](=O)[O-])c(CCNc2ccccc2)c([N+](=O)[O-])c1`, the growth rescue was inactive: 71.6%.
In the case of `COc1ccc(C2=NCC(CBr)S2)cc1` (stereo not given), the growth rescue is reported as inactive: 10.1%.
With `CC(C)=N/N=C(\N)N[N+](=O)[O-]` the growth rescue was inactive: 1.72%.
In the case of `CN(C)C(=O)OCCc1n(C)cc[n+]1C`, the growth rescue is reported as inactive: -12.3%.
With `CC1CCN(C(=O)Oc2c(Cl)cc(Cl)c3cccnc23)CC1` the growth rescue was inactive: 0.623%.
For `Nc1ccc([As](=O)(O)c2ccc(N)cc2)cc1`, the growth rescue was inactive: -23%.
In the case of `C[N+]1=C2C=CC=CC=C2SC12C([N+](=O)[O-])=CC([N+](=O)[O-])=C[C-]2[N+](=O)[O-]` (stereo not given), the growth rescue is reported as inactive: -2.48%.
With `CCN(/C(=N/P(=O)(N1CCOCC1)N1CCOCC1)N1CCOCC1)c1ccc(OC)cc1` the growth rescue was inactive: -6.84%.
With `O=C(Nc1cc([As](=O)(O)O)ccc1O)c1ccccc1` the growth rescue was inactive: -7.18%.
In the case of `O=[N+]([O-])c1cccc(NC2=NCC(CBr)S2)c1` (stereo not given), the growth rescue is reported as inactive: 6.97%.
For `O=C(O)CNc1ccc([As](=O)(O)O)cc1`, the growth rescue was inactive: 16.2%.
In the case of `CC(C)(C)C(=O)NC(Sc1ccncn1)C(Cl)(Cl)Cl` (stereo not given), the growth rescue is reported as inactive: -5.53%.
With `O=[N+]([O-])c1ncn(CCn2ncnc2[N+](=O)[O-])n1` the growth rescue was inactive: -4.45%.
For `Cc1cc(SC(NC(=O)c2ccc(F)cc2)C(Cl)(Cl)Cl)ncn1` (stereo not given), the growth rescue was inactive: 8.97%.
With `CCOP(=O)(Nc1ccccc1)OCC` the growth rescue was inactive: -4.09%.
For `Cc1ccc(NP(=O)(Oc2ccccc2F)Oc2ccccc2F)nc1`, the growth rescue was inactive: -11.8%.
With `CN(C(=O)Cc1ccc(Cl)c(Cl)c1)[C@H]1CCCC[C@@H]1N1CCCC1` the growth rescue was inactive: -0.55%.
For `CC(=O)Nc1ccc([As](=O)(O)O)cc1`, the growth rescue was inactive: 4.91%.
For `O=C(O)c1ccccc1[As](=O)(O)O`, the growth rescue was inactive: 5.75%.
With `O=P(Nc1nc2ccc(Cl)cc2s1)(c1ccccc1)c1ccccc1` the growth rescue was inactive: -8.86%.
For `CCN(N=Nc1nonc1N)c1nonc1N`, the growth rescue was inactive: 2.82%.
For `Nc1cccc2ccc([As](=O)(O)O)cc12`, the growth rescue was inactive: 5.22%.
For `O=[N+]([O-])c1cc([N+](=O)[O-])c(CCN2CCOCC2)c([N+](=O)[O-])c1`, the growth rescue was inactive: 147%.
With `COc1ccccc1OP(=O)(Nc1ccc(C)cn1)Oc1ccccc1OC` the growth rescue was inactive: 137%.
With `Cc1ccc(OP(=O)(Nc2nccs2)Oc2ccc(C)cc2)cc1` the growth rescue was inactive: -14.2%.
For `CN1CCCC(OC(=O)C(c2ccccc2)c2ccccc2)C1` (stereo not given), the growth rescue was inactive: 2.94%.
In the case of `Clc1ccc(Cl)c(NC2=NCC(CBr)S2)c1` (stereo not given), the growth rescue is reported as inactive: 8.61%.
With `NC(=O)c1cc([N+](=O)[O-])cc([N+](=O)[O-])c1N` the growth rescue was inactive: 96.5%.
With `CN(C(=O)Cc1ccc(Cl)c(Cl)c1)[C@H]1CCCC[C@H]1N1CCCC1` the growth rescue was inactive: 4.68%.
In the case of `Cc1ccc(N/C(=N/P(=O)(N2CCOCC2)N2CCOCC2)N2CCOCC2)cc1`, the growth rescue is reported as inactive: 5.85%.
With `Nc1cc(N)c2nonc2c1[N+](=O)[O-]` the growth rescue was inactive: -15.4%.
For `CC(C)CC(=O)NC(Sc1ccc(Cl)cc1)C(Cl)(Cl)Cl` (stereo not given), the growth rescue was inactive: -6.85%.
For `Oc1ccccc1CNc1ccccn1`, the growth rescue was inactive: -2.77%.
With `O=C(NC(Sc1ccncn1)C(Cl)(Cl)Cl)c1ccccc1` (stereo not given) the growth rescue was inactive: -0.451%.
With `Cc1c2non([O-])c-2c(C)[n+](=O)[n+]1[O-]` the growth rescue was inactive: -17.3%.
In the case of `CC(C)(C)C(=O)NC(Sc1ccccc1)C(Cl)(Cl)Cl` (stereo not given), the growth rescue is reported as inactive: -9.45%.
For `O=P1(Nc2nc3ccc(Cl)cc3s2)COc2ccccc2O1` (stereo not given), the growth rescue was inactive: 22.7%.
In the case of `CCOc1ccc(C2=NCC(CBr)S2)cc1` (stereo not given), the growth rescue is reported as inactive: 16.6%.
For `CC(=O)Nc1ccc([As](=O)(O)O)c(O)c1`, the growth rescue was inactive: 8.7%.
In the case of `CC(=O)Nc1ccc(Oc2c([N+](=O)[O-])cc([N+](=O)[O-])cc2[N+](=O)[O-])cc1`, the growth rescue is reported as inactive: -1.16%.
For `CC(=O)c1ccc(N2CC2c2ccncc2)cc1` (stereo not given), the growth rescue was inactive: -9.08%.
For `C[C@H]1OP(=O)(Oc2ccccc2)C[C@@H]2O[C@@H]21` (stereo not given in full), the growth rescue was inactive: 9.07%.
With `C[C@@H]1C=CCP(=O)(Oc2ccccc2)O1` (stereo not given in full) the growth rescue was inactive: 10%.
In the case of `CCNC(=S)/N=C(\N)N[N+](=O)[O-]`, the growth rescue is reported as inactive: -20.8%.
In the case of `O=C(NC1CCS(=O)(=O)C1)NP(=S)(Oc1ccccc1)Oc1ccccc1` (stereo not given), the growth rescue is reported as inactive: 13.7%.
In the case of `c1ccc(-c2nn[nH]n2)c(-c2nn[nH]n2)c1`, the growth rescue is reported as inactive: -0.98%.
With `CCOC(=O)NC(Sc1ccccc1)C(Cl)(Cl)Cl` (stereo not given) the growth rescue was inactive: -8.36%.
In the case of `Cc1ccc(NP(=O)(Oc2cccc(C)c2)Oc2cccc(C)c2)nc1`, the growth rescue is reported as inactive: -6.38%.
In the case of `CC(NC(=O)COC(=O)C(O)(c1ccccc1)c1ccccc1)c1ccccc1` (stereo not given), the growth rescue is reported as inactive: 5.84%.
With `Cc1ccccc1OP(=O)(Nc1ccccn1)Oc1ccccc1C` the growth rescue was inactive: -0.919%.
